In patent US20230046947A1, “REACTIVE CONJUGATES” (Debiopharm Research & Manufacturing S.A., priority 2019, published 2023):

Experiments:
Type in all cases: cell-based
[1] = test system: MDA-MB33 (HER2−) breast adenocarcinoma cell line; assay: Flow cytometry binding to MDA-MB33 cells; conditions: negative control cells, data not shown
[2] = test system: MDA-MB-231 (HER2−) breast adenocarcinoma cell line; assay: Flow cytometry binding to MDA-MB-231 cells; conditions: 3 and 30 μg/mL, negative control cells
Experimental: (§1) For SK-BR-3 cells, the concentration of antibody or antibody conjugate ranged from 0.003 to 30 μg/mL ( 1/10 dilutions were made). For MD-MB-231 cells, only 3 and 30 μg/mL were used. […] Dead cells were excluded with DRAQ7. Error bars: SD (n=2).
(§2) Subsequently, a fluorescent secondary antibody specific for trastuzumab was added to measure the binding by fluorescence.

[3] = test system: SKBR-3 (HER2+) breast adenocarcinoma cell line; assay: Flow cytometry binding to SKBR-3 cells; conditions: 0.003 to 30 μg/mL, secondary anti-human IgG Fc Alexa 488
Experimental: as §1, §2

Substance | binding to MDA-MB33 cells [1] | binding to MDA-MB-231 cells [2] | binding to SKBR-3 cells, median fluorescence intensity (MFI) [3]
Conjugate 12: trastuzumab-FITC (random) conjugate, 10 eq of FITC, 16 hours | No binding | – | –
trastuzumab-DOTA conjugate: trastuzumab-DOTA conjugate prepared in the same manner as in Example 6 (similar to conjugate 8; DoC=0.89) | – | No binding | does not affect antibody binding
trastuzumab: unlabeled monoclonal IgG1 antibody [reference compound] | – | No binding | increased in a dose-response manner
